Only a part is listed here, and it is no random draw. Some structures show a salt or complex split into parts, the way the source records it. Calls of active or inactive are those of the source.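 The calls were made as follows: active = Z score or B-score, a plate-position-corrected score, falls beyond the plate's 99.7% confidence bounds, in either direction; inactive = both scores lie inside the 99.7% bounds.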

Chains of the proteins cited; added tags and fusions are not shown.
UniProt Q01959, whole entry: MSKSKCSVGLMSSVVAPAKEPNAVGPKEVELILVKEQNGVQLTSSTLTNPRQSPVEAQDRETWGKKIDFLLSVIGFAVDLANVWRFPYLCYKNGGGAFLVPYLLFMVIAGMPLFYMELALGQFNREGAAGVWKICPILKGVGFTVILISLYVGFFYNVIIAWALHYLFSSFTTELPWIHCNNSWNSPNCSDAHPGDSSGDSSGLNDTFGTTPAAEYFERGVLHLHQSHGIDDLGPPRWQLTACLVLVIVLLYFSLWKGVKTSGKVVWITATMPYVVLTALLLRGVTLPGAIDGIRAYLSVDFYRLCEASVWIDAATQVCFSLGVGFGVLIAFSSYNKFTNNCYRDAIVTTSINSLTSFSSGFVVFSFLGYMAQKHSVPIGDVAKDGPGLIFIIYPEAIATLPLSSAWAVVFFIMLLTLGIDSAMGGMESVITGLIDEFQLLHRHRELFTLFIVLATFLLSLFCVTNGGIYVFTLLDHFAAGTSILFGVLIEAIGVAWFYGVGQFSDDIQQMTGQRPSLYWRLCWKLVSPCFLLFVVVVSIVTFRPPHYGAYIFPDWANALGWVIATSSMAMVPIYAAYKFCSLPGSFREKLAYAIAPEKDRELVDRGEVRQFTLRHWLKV

In this assay the target is Sodium-dependent dopamine transporter (Homo sapiens) (UniProt Q01959). As to the kind of experiment: changed hDAT dopamine uptake under cocaine IC80, either direction, primary screen, cocaine antagonist project, cell-based, LLC-PK1 hDAT, [14C]-dopamine uptake, MLSMR (AID 449768).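 Also: scored against the spread of the other compound wells on the same plate.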 The conditions noted are these: LLC-PK1 hDAT cells, [14C]-dopamine uptake with cocaine IC80; at 10 µM; actives deviate in either direction.
Turning to `Cc1cc(C)cc(OP(C)(=O)Nc2ccc(C)cc2C)c1` (centres undefined), the B-score is inactive: 1.48.

On to `Cc1ccc(C)c(NP(C)(=O)Oc2ccccc2)c1` (centres undefined), for which the B-score is inactive: -0.0529.

In the case of `Cc1cc(C)cc(OP(C)(=O)Nc2ccccn2)c1` (centres undefined), the B-score was inactive: -0.015.

For `COc1ccccc1OP(C)(=O)Nc1c(C)cccc1C` (centres undefined), the B-score was inactive: 0.00731.

Take `Cc1nc2ccc3ccccc3c2s1.O=[N+]([O-])c1cc([N+](=O)[O-])c(O)c([N+](=O)[O-])c1`: the B-score is inactive: -1.32.

For `CP(=O)(NC(=O)Nc1ccccc1)Oc1ccccc1` (centres undefined), the B-score was inactive: -0.0429.

As for `CCOP(C)(=S)SCC(=O)NC(C)C(=O)O` (centres undefined), the B-score was inactive: -0.157.

Take `CP(=O)(Nc1ccccn1)Oc1ccc(Cl)cc1` (centres undefined): the B-score is inactive: -0.729.

With `CP(=S)(Nn1cnnc1)Oc1ccccc1` (centres undefined), the B-score is inactive: -0.18.

In the case of `Cc1ccc(NP(C)(=O)Oc2ccccc2)c(C)c1` (centres undefined), the B-score was inactive: 1.1.

In the case of `COc1ccccc1OP(C)(=O)Nc1ccc(C)cc1` (centres undefined), the B-score was inactive: 0.221.

`COc1ccc(OP(C)(=O)Nc2ccccn2)cc1` (centres undefined): the B-score was inactive: -0.142.

`CN(C)CCOC(=O)C(O)(c1ccccc1)C1CCCC1` (centres undefined): the B-score was inactive: -1.38.

Regarding `Cc1c(NP(C)(=O)Oc2ccc(C(C)C)cc2)c(=O)n(-c2ccccc2)n1C` (centres undefined), the B-score is inactive: -0.264.

As for `COc1ccccc1OP(C)(=O)Nc1ccc(C)cc1C` (centres undefined), the B-score was inactive: 0.0444.

With `CP(=O)(Nc1ccccn1)Oc1ccccc1` (centres undefined), the B-score is inactive: -0.00788.

For `CCc1ccc(OP(C)(=O)O)cc1`, the B-score is inactive: -0.194.

As for `COc1ccccc1OP(C)(=O)Nc1ccc(C)c(C)c1` (centres undefined), the B-score was inactive: 0.899.

On to `Cc1nc2ccc3ccccc3c2o1.O=[N+]([O-])c1cc([N+](=O)[O-])c(O)c([N+](=O)[O-])c1`, for which the B-score was inactive: -0.639.

As to `CP(=O)(OC12CC3CC(CC(C3)C1)C2)OC12CC3CC(CC(C3)C1)C2`, the B-score is inactive: -0.573.

On to `CCN(CC)CC(O)COC(=O)C(O)(c1ccccc1)C1CCCCC1` (centres undefined), for which the B-score is inactive: -1.43.

In the case of `COc1ccccc1OP(C)(=O)Nc1c(C)n(C)n(-c2ccccc2)c1=O` (centres undefined), the B-score was inactive: -0.0101.

For the molecule `CP(=O)(Oc1ccccc1)N1CCOC1=O` (centres undefined), the B-score was inactive: 0.418.

In the case of `CC(C)(C)c1ccc(OP(C)(=O)O)cc1`, the B-score is inactive: -0.0118.

Turning to `CP(=O)(Nc1ccc(Cl)cc1)Oc1ccc(F)cc1` (centres undefined), the B-score was inactive: -0.244.

For the molecule `CCOP(C)(=S)SCC(=O)NC(C)(CC)C(=O)O` (centres undefined), the B-score is inactive: -1.19.

For `CP(=O)(Nc1ccc2c(c1)OCCO2)Oc1ccccc1` (centres undefined), the B-score is active: -2.08.

Take `Cc1ccccc1NP(C)(=O)Nc1ccccc1C`: the B-score is inactive: -0.113.

In the case of `COc1ccc(OP(C)(=O)Nc2cccc(Br)c2)cc1` (centres undefined), the B-score is inactive: -0.649.

Take `CN(C)CCOC(=O)C(O)(c1ccccc1)C1CCCCC1` (centres undefined): the B-score is inactive: -0.065.

In the case of `CCN(CC)CCCOC(=O)C(O)(c1ccccc1)C1CCCCC1` (centres undefined), the B-score is inactive: -1.38.

Consider `CP(=O)(Nc1ccccc1)Oc1ccc(F)cc1` (centres undefined), for which the B-score is inactive: -0.0476.

Regarding `CP(=O)(Nc1ccccc1F)Oc1ccccc1` (centres undefined), the B-score was inactive: -1.2.

Regarding `COc1ccc2c(c1O)-c1c(O)c(OC)cc3c1[C@H](C2)[N+](C)(C)CC3.O=[N+]([O-])c1cc([N+](=O)[O-])c([O-])c([N+](=O)[O-])c1[O-]`, the B-score was inactive: -0.151.

These data come from PubChem BioAssay AID449768 (Vanderbilt High Throughput Screening Facility, 2010).
